E-sel inducer = E-selectin induction on HUVECs. AID 686992. activation, % at 7.58 µM. 260,000 tested, 0.37% active. HUVEC E-selectin immunofluorescence imaging; normalized: neutral wells 0, TNF-alpha wells 100;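 active = mean E-selectin-positive cell signal at least 10% of the positive control, reached in at least 60% of replicates, without over 20% cell loss; inconclusive = no rule given, readout overlaps actives, possibly toxicity-flagged; inactive = the rest, including those meeting only one limit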
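System: HUVEC, human umbilical vein endothelial cells; quantity: 3,000 cells/well; buffer or medium: EGM-2 medium, gelatin-coated wells; dosing: single-point compound dose; detection: immunofluorescence imaging; evaluation: % PE-positive cells; benchmarks: TNF-alpha, DMSO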
DENV2 CPE = DENV2-induced cell death inhibition. DENV2-infected cells, cytopathic effect rescue, plate reader. 350,000 tested, 1.7% active. CPE inhibition, % at 9.99 µM. AID 651640; in the data active = CPE inhibition above about 20%, passing the limit was not always enough; inconclusive = no clear call, values can overlap the other calls; tested in BHK-21 cells;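 also: 0% = median of neutral control wells and 100% = median of positive control wells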
Yeast UUG start = alters start codon recognition fidelity in yeast | S. cerevisiae UUG-firefly luciferase reporter, luminescence/redox ratio | activity score, % at 18.7 µM | hit rate 0.13% among 350,000 | AID 602363;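 active means replicate mean at a twofold rise or more, about +100% in these data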;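 further: firefly luciferase made from a UUG start codon reports start codon fidelity; reporter light over untreated wells divided by growth signal over untreated wells; some hits fall short of that in this replicate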
Cneo AK release = Cryptococcus neoformans lysis via adenylate kinase release; C. neoformans lysis, adenylate kinase release luminescence, 4 h; normalised: neutral wells 0, clomiphene wells 100; lysis activity, % at 15 µM; 360,000 tested, 0.2% active;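 active = mean lysis activity across replicates of at least 80%, whatever share of replicates individually reach that level; inactive = mean lysis activity below 80%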
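Assay system: log-phase C. neoformans yeast / Quantity: yeast cell density of 5 × 10^6 cells/mL / Medium: fresh YPD growth medium / Compound: single dose / Timing: static 4 h at 37 °C with compound, 1 h detection / Measured by: adenylate kinase release luminescence / Read-out: lysis from increased AK signal / Benchmarks: Clomiphene as positive lysis control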
An asterisk follows results filed as active; ? = inconclusive; . = no result; ! = not confirmed by another sample. Hits are enriched below; roughly 1.8% of the tested compounds scored in any of these assays.

cpd | Compound | Yeast UUG start | Cneo AK release
1 | CC(=O)NC[C@@H]1[C@@H](c2ccc(-c3ccccc3)cc2)[C@@H](CO)N1C(=O)C1CC1 | -5 | 0
2 | CC(=O)NC[C@@H]1[C@H](c2ccc(-c3ccccc3)cc2)[C@H](CO)N1C(=O)C1CC1 | -1 | 0
3 | CC(=O)NC[C@H]1[C@H](c2ccc(-c3cccnc3)cc2)[C@@H](CO)N1C(=O)C1CC1 | -2 | 6
4 | CC(=O)NC[C@H]1[C@H](c2ccc(-c3ccccc3F)cc2)[C@@H](CO)N1C(=O)C1CC1 | 9 | -2
5 | CC(=O)NC[C@H]1[C@@H](c2ccc(-c3ccccc3F)cc2)[C@@H](CO)N1C(C)=O | -14 | 5
6 | CC(C)NC(=O)Nc1ccc2c(c1)C(=O)N([C@H](C)CO)C[C@@H](C)[C@H](CN(C)S(=O)(=O)c1ccc(Cl)cc1)OCCCC[C@@H](C)O2 | -1 | 0
7 | C[C@@H]1CCCCO[C@H](CN(C)S(=O)(=O)c2ccc(Cl)cc2)[C@@H](C)CN([C@@H](C)CO)C(=O)c2cc(NC(=O)Nc3ccc(F)cc3)ccc2O1 | 1 | 3
8 | CC(C)NC(=O)Nc1ccc2c(c1)C(=O)N([C@@H](C)CO)C[C@@H](C)[C@@H](CN(C)S(=O)(=O)c1ccc(Cl)cc1)OCCCC[C@@H](C)O2 | 7 | 102*
9 | C[C@H]1CCCCO[C@H](CN(C)S(=O)(=O)c2ccc(Cl)cc2)[C@@H](C)CN([C@@H](C)CO)C(=O)c2cc(NC(=O)Cc3ccccc3)ccc2O1 | 4 | 2
10 | O=C1CN(Cc2ccc(F)cc2)C[C@@H]2[C@H](c3ccc(-c4cccnc4)cc3)[C@@H](CO)N12 | . | .

cpd | E-sel inducer | DENV2 CPE
1 | 0 | -16
2 | 0 | 76*
3 | 0 | -2
4 | 0 | 81*
5 | 0 | 41*
6 | . | 16
7 | . | 23*
8 | . | 17
9 | 0 | 109*
10 | 0 | 0

Next part
cpd | Compound | Yeast UUG start | Cneo AK release
11 | O=C(NC1CCCC1)N[C@@H]1CC[C@H](CC(=O)N2CCOCC2)O[C@@H]1CO | -10 | 1
12 | CC=Cc1ccc2n(c1=O)C[C@H]1[C@H](CO)[C@@H](C(=O)N[C@@H](C)c3ccccc3)[C@@H]2N1CC (mixture of isomers) | . | -3
13 | C[C@@H]1CN([C@H](C)CO)S(=O)(=O)c2ccc(-c3ccc(F)cc3)cc2O[C@H]1CN(C)C(=O)C1CC1 | 11 | .
14 | Cc1cccc(NS(=O)(=O)c2csc(C(N)=O)c2)c1C | -16 | -2
15 | Cc1ccc(C(=O)c2c3ccc([N+](=O)[O-])cc3[n+]([O-])n2CCCC(N)=O)cc1 | -1 | -1
16 | NC(=O)CCCn1c(C(=O)c2ccc(Cl)cc2)c2ccc([N+](=O)[O-])cc2[n+]1[O-] | -20 | 1
17 | CC(=O)N1c2ccccc2[C@H](C)[C@H]1C | -8 | 0
18 | CCCCNC(=O)O[C@H]1C[C@@H]2CCN3C(=O)CCC[C@H]([C@H]1Cc1ccccc1)[C@H]23 | -9 | -1
19 | O=C(c1cc(C2CC2)on1)N1CCCC(N2CCN(c3cccc(C(F)(F)F)c3)CC2)C1 (centres undefined) | -6 | 2
20 | CCN(CC)CC(=O)N1CCCC(N2CCN(c3cccc(C(F)(F)F)c3)CC2)C1 (centres undefined) | -23 | -3

cpd | E-sel inducer | DENV2 CPE
11 | 0 | -6
12 | 0 | 4
13 | 0 | .
14 | 50* | 2
15 | 0 | 70*
16 | 0 | -8
17 | 0 | 70*
18 | . | 54*
19 | 0 | 30*
20 | . | 30*

Next results:
cpd | Compound | Yeast UUG start | Cneo AK release
21 | CCOc1ccc(NS(=O)(=O)c2cc(C(=O)N3CCC3)ccc2Cl)cc1 | -21 | 0
22 | C[C@@H]1CCCCO[C@@H](CN(C)C)[C@@H](C)CN([C@@H](C)CO)C(=O)c2cc(NC(=O)CCC(F)(F)F)ccc2O1 | 7 | -5
23 | NC(=O)c1cc2cc(Cl)ccc2oc1=O | -10 | -1
24 | NC(=O)c1cc2cc(Cl)ccc2oc1=Nc1cccc(C(F)(F)F)c1 | -17 | 0
25 | CC(C)CCNC(=O)c1cn(C)c2ccc(S(=O)(=O)N3CCCC3)cc2c1=O | 3 | 2
26 | COc1ccccc1-c1cn(CC[C@H]2CC[C@@H](NC(=O)C3CCCC3)[C@@H](CO)O2)nn1 | . | .
27 | O=C1c2ccccc2S(=O)(=O)c2cc(C(=O)N3CCN(c4ccc(Cl)cn4)CC3)ccc21 | 6 | 1
28 | O=C(Nc1ccncc1)c1ccc2c(c1)S(=O)(=O)c1ccccc1C2=O | -10 | -1
29 | N#Cc1cccnc1N1CCN(C(=O)c2ccc3c(c2)S(=O)(=O)c2ccccc2C3=O)CC1 | 16 | -7
30 | CNC[C@H]1Oc2cc(Br)ccc2S(=O)(=O)N([C@@H](C)CO)C[C@H]1C | -4 | -1

cpd | E-sel inducer | DENV2 CPE
21 | . | 47*
22 | 0 | -3
23 | . | .
24 | -2 | 66*
25 | 37* | -2
26 | 0 | 6
27 | 0 | 42*
28 | 0 | 53*
29 | 0 | -3
30 | 0 | 15

A second format for part of the listing above:
28) O=C(Nc1ccncc1)c1ccc2c(c1)S(=O)(=O)c1ccccc1C2=O
  Yeast UUG start: -10; Cneo AK release: -1; E-sel inducer: 0; DENV2 CPE: 53*

27) O=C1c2ccccc2S(=O)(=O)c2cc(C(=O)N3CCN(c4ccc(Cl)cn4)CC3)ccc21
  Yeast UUG start: 6; Cneo AK release: 1; E-sel inducer: 0; DENV2 CPE: 42*

29) N#Cc1cccnc1N1CCN(C(=O)c2ccc3c(c2)S(=O)(=O)c2ccccc2C3=O)CC1
  Yeast UUG start: 16; Cneo AK release: -7; E-sel inducer: 0; DENV2 CPE: -3

23) NC(=O)c1cc2cc(Cl)ccc2oc1=O
  Yeast UUG start: -10; Cneo AK release: -1; E-sel inducer: .; DENV2 CPE: .

Remaining list, next part
cpd | Compound | Yeast UUG start | Cneo AK release
31 | CNC[C@@H]1Oc2cc(Br)ccc2S(=O)(=O)N([C@@H](C)CO)C[C@H]1C | 14 | 1
32 | CNC[C@@H]1Oc2cc(Br)ccc2S(=O)(=O)N([C@H](C)CO)C[C@H]1C | -4 | 100*!
33 | CNC[C@H]1Oc2cc(Br)ccc2S(=O)(=O)N([C@H](C)CO)C[C@H]1C | -7 | 91*!
34 | CCC(=O)Nc1ccc2c(c1)C(=O)N(C)C[C@H](OC)[C@@H](C)CN(Cc1ccccc1)[C@H](C)CO2 | 5 | -1
35 | N#CC(=Nc1cccc(F)c1)C1=C(O)c2ccccc2C1=O | . | .
36 | COc1ccc(CN=C(C#N)C2=C(O)c3ccccc3C2=O)cc1 | . | .
37 | CCCC(=O)Nc1ccc2c(c1)C(=O)N(C)C[C@@H](OC)[C@H](C)CN(C(=O)c1ccncc1)[C@H](C)CO2 | -4 | -59
38 | CC(C)NC(=O)N(C)C[C@@H]1Oc2cc(-c3ccccc3F)ccc2S(=O)(=O)N([C@@H](C)CO)C[C@@H]1C | 5 | 2
39 | C[C@@H]1CN([C@@H](C)CO)C(=O)Cc2cc(NC(=O)C3CC3)ccc2O[C@H]1CN(C)Cc1ccc(Cl)c(Cl)c1 | . | 0
40 | Cc1cc2oc(=O)cc(Cn3ccnc3)c2cc1Cl | . | .

cpd | E-sel inducer | DENV2 CPE
31 | 0 | ?
32 | 0 | ?
33 | 0 | 15
34 | 0 | 11
35 | 0 | 32*
36 | . | -3
37 | 0 | 19
38 | 0 | -2
39 | 0 | 1
40 | 0 | 26*

Additional entries:
cpd | Compound | Yeast UUG start | Cneo AK release
41 | Cc1cc2oc(=O)cc(Cn3ccnc3)c2cc1O | -13 | 1
42 | CCOc1ncccc1C(=O)OCC(=O)NCc1ccc(C(=O)OC)cc1 | -16 | -1
43 | Cc1ccccc1-c1ccc([C@H]2[C@@H](CO)N3CCCCN(C(=O)Nc4ccc(F)cc4)C[C@H]23)cc1 | 7 | 10
44 | C[C@@H]1CN([C@H](C)CO)C(=O)c2cc(NC(=O)CCCN(C)C)ccc2O[C@@H](C)CCCCO[C@H]1CN(C)S(=O)(=O)c1ccc(F)cc1 | 23 | -12
45 | C[C@@H]1CCCCO[C@H](CN(C)S(=O)(=O)c2ccc(F)cc2)[C@@H](C)CN([C@H](C)CO)C(=O)c2cc(NC(=O)CCCN(C)C)ccc2O1 | 22 | -24
46 | C[C@@H]1CCCCO[C@@H](CN(C)S(=O)(=O)c2ccc(F)cc2)[C@H](C)CN([C@@H](C)CO)C(=O)c2cc(NC(=O)CCCN(C)C)ccc2O1 | 22 | -11

cpd | E-sel inducer | DENV2 CPE
41 | . | .
42 | 0 | 67*
43 | -1 | -3
44 | 0 | 17
45 | 0 | 34*
46 | 0 | 21*
